The record followed here is patent publication US10450260B2, “NO- and H2S-releasing compounds” (RESEARCH FOUNDATION OF THE CITY UNIVERSITY OF NEW YORK, priority 2011, dated 2019).

In the data set the test system is gastric mucosa. Nature of the data set: Gastric damage, ulcer index. The class given is in vivo, rat. Conditions: rats, oral gavage, equimolar doses: ASA 180, NOSH-ASA 477, naproxen 80, NOSH-naproxen 188, sulindac 200, NOSH-sulindac 467 mg/kg; 6 h post-administration; vehicle UI=0. The protocol:
The institutional animal care and research committees approved all experimental procedures described herein. Male Wistar rats (4 per group) weighing 180-200 g were obtained from Charles River Laboratories International (Wilmington, Mass.). The rats were fed standard laboratory chow and water. Rats were fasted for 48 h with free access to drinking water. […] Stomachs were then rapidly removed, cut along the greatest curvature, and rinsed with ice-cold distilled water. The ulcer index (UI) was determined as described by Best et al (Best R, et al. Br J Pharmacol 1984, 82:107-116). Tissues from stomachs were excised and processed for measurement of Prostaglandin E2 (PGE2), malondialdehyde (MDA) and Superoxide dismutase (SOD) activity.

Turning to `COc1ccc2cc([C@H](C)C(=O)O)ccc2c1` [naproxen, reference compound], the “gastric damage score, ulcer index (UI)” value is 80.
